This passage reports activation results from PubChem BioAssay AID624168 (Sanford-Burnham Center for Chemical Genomics, 2012).

Molecules are shown by their SMILES. The list shows a part of the results, in another mix than the full data. Some of these compounds have results that are not shown, active ones among them. Activity calls are given as the source filed them.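 How the source made its calls: active means activation of at least 8% versus controls, or a plate z-score of at least 8; inactive means the rest.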

The assay can be described thus: compounds raising alpha-dystroglycan glycosylation – uHTS, Pro5-aDG cells, AlphaScreen, primary screen (AID 624168).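 Further: Pro5 are CHO cells carrying HIG-tagged alpha-DG that lacks glycosylation.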 The settings on record: alpha-DG glycosylation AlphaScreen (IIH6), at 10 µM, hits give high values, 0% Pro5, 100% B10-LARGE cell signal. A general note: Alpha assays give light when donor and acceptor beads are brought close together.
For the compound `C=CCN1CCN(CCOC(=O)C(O)(c2ccccc2)c2ccccc2)CC1`, the activation was inactive: 0.8%.
Take `O=C(NCC1(N2CCCCC2)CCCCC1)c1cc(F)c(F)cc1Cl`: the activation was inactive: 0%.
To `COc1ccc(C(=O)NCC2(N(C)C)CCCCC2)cc1` belongs inactive: 0%; to `Cc1cc(C(=O)NCC2(N3CCCCC3)CCCCC2)ccc1[N+](=O)[O-]`, inactive: -0.1%; to `CCN1CCCC(OC(=O)C2(O)c3ccccc3C=Cc3ccccc32)C1` (stereo unspecified), inactive: 0.2%.
The figure for `O=C(NCC1(N2CCCCC2)CCCCC1)c1cccc(Br)c1` is inactive: 0%.
The figure for `Cc1ccccc1C(=O)NCC1(N2CCCCC2)CCCCC1` is inactive: -0.1%; for `CN(C)C1CCCC1OC(=O)C(O)(c1ccccc1)c1ccccc1` (stereo unspecified) it is inactive: -0.3%; for `CN(C)c1ccc(C(=O)NCC2(N(C)C)CCCCC2)cc1` it is inactive: -0.1%.
In the case of `CCN(CC)CC(C)C(C)OC(=O)C(O)(c1ccccc1)c1ccccc1` (stereo unspecified), the activation was inactive: 0%.
To `COc1cc(SC)ccc1C(=O)NCC1(N(C)C)CCCCC1` belongs inactive: -0.1%.
Turning to `CC(C)N1C(=O)CC2(CCN(CCOC(=O)C(O)(c3ccccc3)c3ccccc3)CC2)C1=O`, the activation was inactive: -0.1%.
As for `Cc1ccc(C(=O)NCC2(N3CCCCC3)CCCCC2)cc1`, the activation was inactive: -0.2%.
The figure for `O=C(NCC1(N2CCCCC2)CCCCC1)c1cc([N+](=O)[O-])ccc1Cl` is inactive: 0%.
Take `CN1[C@@H]2CC[C@H]1CC(OC(=O)C(O)(c1ccccc1)c1ccccc1)C2` (stereo partly specified): the activation is inactive: 0%.
To `C=C(C)C#CC(O)(C(=O)OC1CCN(C)CC1)c1ccccc1` (stereo unspecified) belongs inactive: 0.2%.
To `COc1ccc(Br)c(C(=O)NCC2(N3CCCCC3)CCCCC2)c1` belongs inactive: 0.1%; to `CC(C)Oc1ccc(C(=O)NCC2(N(C)C)CCCCC2)cc1`, inactive: 0%; to `O=C(OCCN1CCCC1)C(O)(c1ccccc1)c1ccccc1`, inactive: 0.1%.
To `CN(C)c1cccc(C(=O)NCC2(N(C)C)CCCCC2)c1` belongs inactive: -0.3%; to `O=C(OC1CN2CCC1CC2)C(CO)(c1ccccc1)c1ccccc1` (stereo unspecified), inactive: -0.1%; to `COc1cccc(C(=O)NCC2(N3CCCCC3)CCCCC2)c1`, inactive: -0.2%.
As to `COc1ccc(Cl)cc1C(=O)NCC1(N(C)C)CCCCC1`, the activation was inactive: 0.1%.
Take `O=C(NCC1(N2CCCCC2)CCCCC1)c1cccc(Cl)c1`: the activation is inactive: -0.1%.
The figure for `CN(C)C1(CNC(=O)c2ccc(Br)cc2)CCCCC1` is inactive: -0.1%; for `COc1cc(C(=O)NCC2(N(C)C)CCCCC2)c([N+](=O)[O-])cc1OC` it is inactive: -0.1%.
